The record followed here is ChEMBL document CHEMBL4842326.

This assay concerns the target T1, Histone deacetylase 8 (Homo sapiens, UniProt Q9BY41).
T1 sequence (Q9BY41 whole entry): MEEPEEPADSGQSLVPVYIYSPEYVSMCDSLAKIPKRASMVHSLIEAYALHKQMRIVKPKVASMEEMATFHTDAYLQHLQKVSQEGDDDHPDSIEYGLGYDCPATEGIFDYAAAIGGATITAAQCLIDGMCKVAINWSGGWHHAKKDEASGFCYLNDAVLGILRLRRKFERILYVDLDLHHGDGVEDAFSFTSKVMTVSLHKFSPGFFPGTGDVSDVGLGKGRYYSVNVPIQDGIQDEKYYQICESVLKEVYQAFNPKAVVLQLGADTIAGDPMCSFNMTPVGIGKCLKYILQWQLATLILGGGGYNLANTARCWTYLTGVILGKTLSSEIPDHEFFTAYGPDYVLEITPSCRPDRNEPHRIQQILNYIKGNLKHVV
Nature of the assay: Inhibition of HDAC8 (unknown origin) using Ac-LeuGlyLys(tfa)-AMC as substrate preincubated for 10 mins followed by substrate addition and further incubated for incubated for 1 hrs by fluorescence microtiter plate reader assay.

`O=C(CCCCCCC(=O)Nc1ccccc1)NO` [VORINOSTAT] came in with a half-inhibitory concentration (IC50) of 1280 nM.

The term IC50 denotes the concentration that gives 50% inhibition. A lower IC50 goes with greater potency in that assay.
